The structures appear in SMILES notation.

In series [1] the test system is human papillomavirus (HPV). The experiment in a line: Antiviral activity against human papillomavirus (HPV), overall conclusion. Particulars: inferred from conversion in dogs. Format: cell-based. Here is the method: When the SI50 value>10, the compound was determined to be active against the virus.
The conditions of series [2]: dog, in vivo.

`CC(C)C(=O)N1CCC[C@H]1C(=O)OCOc1ccc([N+](=O)[O-])c2cccnc12` [prodrug, (S)-(5-nitroquinolin-8-yloxy)methyl 1-isopropionylpyrrolidine-2-carboxylate]: the “anti-HPV effect relative to 5-nitro-8-hydroxyquinoline” value in series [1] is on record as “equivalent in anti-HPV effect”. In addition, the “conversion to the active form 5-nitro-8-hydroxyquinoline” value in series [2] is “conversion to the active form 5-nitro-8-hydroxyquinoline was detected in circulating samples”.
